Measurements published in patent US8173606B2, “Sulfated oligosaccharide derivatives” (Progen Pharmaceuticals Limited, priority 2004, dated 2012).

Sequences of proteins named here, by UniProt entry; tags and fusion partners are left off. Residues count along the entry.
UniProt P05230, whole entry, species assumed: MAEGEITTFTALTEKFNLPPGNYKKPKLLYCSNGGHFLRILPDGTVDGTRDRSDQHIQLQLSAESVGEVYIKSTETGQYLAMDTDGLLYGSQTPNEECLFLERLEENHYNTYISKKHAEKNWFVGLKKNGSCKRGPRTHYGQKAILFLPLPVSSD
UniProt P15692, 27-191 isoform P15692-4, species assumed: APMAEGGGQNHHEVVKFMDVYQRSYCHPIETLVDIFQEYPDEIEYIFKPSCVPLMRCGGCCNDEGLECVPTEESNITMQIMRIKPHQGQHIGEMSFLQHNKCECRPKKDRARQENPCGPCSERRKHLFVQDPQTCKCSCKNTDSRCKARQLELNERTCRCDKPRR
UniProt P09038, 143-288, species assumed: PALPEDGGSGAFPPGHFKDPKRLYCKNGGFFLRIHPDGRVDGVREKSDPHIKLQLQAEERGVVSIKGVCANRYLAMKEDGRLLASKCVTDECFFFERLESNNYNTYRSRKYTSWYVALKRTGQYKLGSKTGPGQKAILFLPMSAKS

Tests used:
[1] = rat, in vivo, iv, 2.5 mg/kg
Method: The polyol precursors for PG500, 501, 503, 504, 506 and PI-88 (2 mg of each) were desiccated under vacuum over P2O5 for 3 days. Into each vial was syringed 50 μL of a stock solution of 1.77 mg (2.0 mCi) of ^35SO3.pyridine complex and 2 mg SO3.Me3N in 300 μL of anhydrous DMF (Aldrich, redried over freshly ignited 3 A molecular sieves). A further 600 μL of anhydrous DMF was added to the SO3 vial and was distributed to each sample vial. The samples were heated to 60° for 66 hr. SO3.Me3N (14 mg in 300 μL anhydrous DMF) was added to each vessel and the resulting solutions were heated to 60° overnight. The vials were cooled to room temperature and stored at −80° C. awaiting purification.
Each sample was quenched by addition of Na2CO3 (sat. aqu. adjusted to pH 8-9), evaporated to dryness and subjected to SEC (Biogel P2, 2.6×90 cm, flow rate 30 mL/hr, 5 min/fraction). Fractions containing desired material were detected using a G-M counter and DMB test followed by CE.
Male Sprague Dawley rats (250-350 g) were used. […] The animals were carefully monitored during recovery (1-4 h).
All doses were administered as a bolus intravenous injection of 2.5 mg/kg in a dose volume of 2 mL/kg. The total amount of radioactivity administered to each rat was 0.5-10 μCi. […]

[2] = molecular target: FGF-1 (Homo sapiens, UniProt P05230); assay: SPR based solution affinity assay, growth factor binding (FGF-1); conditions: heparin-coated sensorchip, HBS-EP buffer, 25° C.; read-out: Kd aFGF
Method: (§1) Binding affinities of ligands for the growth factors FGF-1, FGF-2 and VEGF were measured using a surface plasmon resonance (SPR) based solution affinity assay. The principle of the assay is that heparin immobilised on a sensorchip surface distinguishes between free and bound growth factor in an equilibrated solution of the growth factor and a ligand. Upon injection of the solution, the free growth factor binds to the immobilised heparin, is detected as an increase in the SPR response and its concentration thus determined. A decrease in the free growth factor concentration as a function of the ligand concentration allows for the calculation of the dissociation constant, Kd. It is important to note that ligand binding to the growth factors can only be detected when the interaction involves the HS binding site, thus eliminating the chance of evaluating non-specific binding to other sites on the protein. […]
(§2) For the testing of growth factor binding activity, heparin-coated sensorchips were used. […] Ligands binding to FGF-1 and VEGF were measured in HBS-EP buffer (10 mM HEPES, pH 7.4, 150 mM NaCl, 3.0 mM EDTA and 0.005% (v/v) polysorbate 20), while binding to FGF-2 was measured in HBS-EP buffer containing 0.3 M NaCl.[5] […] For each assay mixture, 50-200 μL of solution was injected at 5-40 μL/min and the relative binding response measured. […]
(§3) [formula] and the binding equation[5] can be expressed as […]

[3] = molecular target: VEGF (Homo sapiens, UniProt P15692); assay: SPR based solution affinity assay, growth factor binding (VEGF); conditions: heparin-coated sensorchip, HBS-EP buffer, 25° C.
Method: as §1, §2, §3

[4] = molecular target: FGF-2 (Homo sapiens, UniProt P09038); assay: SPR based solution affinity assay, growth factor binding (FGF-2); conditions: heparin-coated sensorchip, HBS-EP buffer containing 0.3 M NaCl, 25° C.; read-out: Kd bFGF
Method: as §1, §2, §3

[5] = molecular target: T1, heparanase (Homo sapiens, UniProt Q9Y251); assay: Heparanase inhibition, Microcon ultrafiltration assay; format: biochemical; conditions: 3H labelled HS, pH 5.0, 22° C., 2.5 h
T1 sequence (Q9Y251 158-543 limits assumed): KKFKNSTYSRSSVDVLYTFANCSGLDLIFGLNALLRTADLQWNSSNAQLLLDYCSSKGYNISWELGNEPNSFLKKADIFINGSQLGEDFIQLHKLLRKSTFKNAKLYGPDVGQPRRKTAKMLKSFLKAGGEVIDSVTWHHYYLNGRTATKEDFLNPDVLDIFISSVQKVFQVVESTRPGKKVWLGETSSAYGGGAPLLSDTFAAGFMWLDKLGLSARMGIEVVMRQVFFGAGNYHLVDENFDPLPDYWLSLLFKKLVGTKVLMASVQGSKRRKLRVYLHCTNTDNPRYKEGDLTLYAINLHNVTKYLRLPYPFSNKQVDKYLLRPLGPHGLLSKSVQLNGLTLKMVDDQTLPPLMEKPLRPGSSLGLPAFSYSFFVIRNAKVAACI
T1 sequence (Q9Y251 36-109 limits assumed): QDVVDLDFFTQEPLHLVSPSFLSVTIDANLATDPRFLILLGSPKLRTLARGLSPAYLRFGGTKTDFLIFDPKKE
Method: The heparanase assays were performed using a Microcon ultrafiltration assay. The assays rely on the principle of physically separating heparan sulfate (HS) that has been digested by heparanase from native HS to determine heparanase activity. The assay uses ultrafiltration devices (Microcon YM-10) to separate the smaller heparanase-cleaved HS fragments from native HS.
A reaction was set up with a volume of 90 μL, • 40 mM acetate buffer (pH 5.0) • 0.1 mg/mL BSA • 90 ng heparanase • 2.5 μM ^3H labelled HS • various concentrations of inhibitors.
The reactions were set up with all components except the ^3H labelled HS and allowed to equilibrate for 10 min at 22° C. The assays were then initiated by adding the HS and immediately 20 μL was taken, mixed with 80 μL of 10 mM phosphate (pH 7.0) and the 100 μL transferred to a Microcon YM-10 concentrator which was then centrifuged at approximately 14000 g for 5 min. The solution that passed through the membrane (filtrate) was retained. This sample was considered the time=0 sample. […]
The time=0 filtrate and the three 2.5 h filtrate samples were counted for ^3H. […] All inhibition assays were run with a heparanase standard assay which was identical to the assay composition above except no inhibitor was present and the amount of heparanase inhibition in the other assays determined by comparison with this standard.

Substance | t1/2* (apparent) [1] | Kd [2] | Kd [3] | Kd [4] | IC50 [5]
PEG2000 Polysulfate [PG506] | 0.59 ± 0.01^ h | 0.088 ± 0.017 nM | 3.5 ± 0.8 nM | 114 ± 13 nM | 2120 ± 152 nM
PEG5000 Polysulfate [PG504] | 2.81 ± 0.04 h | 0.361 ± 0.028 nM | 8.1 ± 0.6 nM | 150 ± 9 nM | 6030 ± 1050 nM
